In patent US20250161282A1, “PHARMACEUTICAL PYRIDYL COMPOSITIONS FOR TREATING AND PREVENTING DELAYED GRAFT FUNCTION” (Unicycive Therapeutics, Inc., priority 2023, published 2025):

Experiment: Phase I study Part 1, single ascending doses (SAD), oral fasted
Conditions: 80 mg dose level

CC(NC(=O)OC[n+]1cccc(C(=O)NCCO[N+](=O)[O-])c1)C1CCCCC1 (stereo in doubt) [Compound 8, (S)-1-(((1-cyclohexylethylcarbamoyl)oxy)methyl)-3-((2-(nitroxy)ethyl)carbamoyl)pyridine-1-ium iodide]
safety concerns raised: no safety concerns
